Source: US20040241243A1, “Angiogenesis promotion by prostaglandin compositions and methods” (NexMed (Holdings) Inc., priority 2003, published 2004)

By UniProt entry, the sequences of proteins in these tests, tags left out. Where a name states a change or a piece, a line headed by the entry shows the natural chain unless it says otherwise.
UniProt P32240: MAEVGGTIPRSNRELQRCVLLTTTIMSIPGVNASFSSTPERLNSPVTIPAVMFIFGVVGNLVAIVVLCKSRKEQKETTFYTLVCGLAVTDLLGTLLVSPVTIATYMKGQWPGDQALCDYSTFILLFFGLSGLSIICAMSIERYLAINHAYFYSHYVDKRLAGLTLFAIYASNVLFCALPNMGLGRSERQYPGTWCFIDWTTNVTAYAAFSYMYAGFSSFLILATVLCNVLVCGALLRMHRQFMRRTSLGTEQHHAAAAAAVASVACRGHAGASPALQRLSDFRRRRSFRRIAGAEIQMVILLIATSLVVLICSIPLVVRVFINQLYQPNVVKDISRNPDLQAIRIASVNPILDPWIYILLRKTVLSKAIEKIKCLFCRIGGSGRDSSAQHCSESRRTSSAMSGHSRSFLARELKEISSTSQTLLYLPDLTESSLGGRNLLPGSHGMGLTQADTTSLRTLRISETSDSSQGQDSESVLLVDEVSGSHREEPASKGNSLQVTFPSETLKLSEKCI
UniProt Q62053: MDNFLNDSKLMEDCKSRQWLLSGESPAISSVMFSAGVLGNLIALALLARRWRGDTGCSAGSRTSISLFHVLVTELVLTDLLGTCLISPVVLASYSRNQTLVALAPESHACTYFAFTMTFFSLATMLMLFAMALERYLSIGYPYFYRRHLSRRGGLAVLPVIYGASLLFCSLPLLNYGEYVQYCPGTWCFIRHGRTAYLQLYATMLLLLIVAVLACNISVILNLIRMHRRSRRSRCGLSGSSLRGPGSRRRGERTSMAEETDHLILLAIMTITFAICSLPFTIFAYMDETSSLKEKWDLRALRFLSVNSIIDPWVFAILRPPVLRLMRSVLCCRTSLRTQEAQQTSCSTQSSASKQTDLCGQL

Legend:
[1] = tested on: segments of rat iliac arteries; experiment: microvascular outgrowth from rat iliac artery ringlets cultured in Matrigel; type: cell-based, Sprague-Dawley rats
Method: Each sample was placed on a reduced-growth factor Matrigel coated coverglass slide in a culture dish filled with serum-free medium. PGE1 (Sigma) was added to the medium at a final concentration of 1, 10, 20, 30, 60, or 100 micromoles (μM). The cultures were incubated at 37° C. in a humidified atmosphere with 5% CO2. Digital photographs were taken of growth after 96 hours. The control group (6 samples) was incubated in Matrigel in serum free medium without PGE1.
Growth Factor Reduced Matrigel (Passaniti, A., et al., Lab. Invest. 1992 67:518-528) was purchased from Becton Dickinson (Mountain View, Calif.). Cell culture grade PGE1 was purchased from Sigma Chemical. (St. Louis, Mo.). RPIM-1640 and other cell culture reagents were purchased from GIBCO Invitrogen Corp. (Grand Island, N.Y.).
Male Sprague-Dawley rats, two-months old, were used in this study. […]
After 96 hours of incubation, the iliac artery ringlet cultures were examined. […] The digital images were analyzed using ChemiImager 4000 software (Alpha Innotech Corporation, San Leandro, Calif.) to determine the maximum length of the microvascular growths.
Statistical analysis was performed using computer software from Primer of Biostatistics, 3rd ed. […] The data involving different time points were first analyzed by one-way analysis of variance (ANOVA). […]

[2] = target: EP4 receptor (Mus musculus, UniProt P32240); conditions: read-out: affinity for the EP4 receptor; cited from earlier work
[3] = target: EP2 receptor (Mus musculus, UniProt Q62053); conditions: read-out: affinity for the EP2 receptor; cited from earlier work

Prostaglandin E1 [PGE1]
maximum microvascular growth relative to peak at 1 μM ([1]; higher doses 10, 20, 30 and 60 μM): smaller maximum microvascular growth
maximum microvascular growth relative to absence of PGE1 ([1]; highest doses 20, 30 and 60 μM): apparently reduced the maximum microvascular growth
Kd [2]: ~2 nM
Kd [3]: ~10 nM
